Test results as given in patent publication US10226462B2, “Detection and treatment of excessive hair shedding” (Samson Clinical Pty Ltd, priority 2014, dated 2019).

Tested on: female pattern hair loss (Sinclair stage 2-5)
Conditions: minoxidil recommenced as monotherapy after stopping the combination capsule; 2 patients

Recurrence of urticaria: did not recur
SMILES: Nc1cc(N2CCCCC2)nc(N)[n+]1[O-] [minoxidil]
